We go through 1 compound from PMC8272913 (ACS chemical neuroscience, 2019).

Chains of the proteins cited; added tags and fusions are not shown.
UniProt P31652, whole entry: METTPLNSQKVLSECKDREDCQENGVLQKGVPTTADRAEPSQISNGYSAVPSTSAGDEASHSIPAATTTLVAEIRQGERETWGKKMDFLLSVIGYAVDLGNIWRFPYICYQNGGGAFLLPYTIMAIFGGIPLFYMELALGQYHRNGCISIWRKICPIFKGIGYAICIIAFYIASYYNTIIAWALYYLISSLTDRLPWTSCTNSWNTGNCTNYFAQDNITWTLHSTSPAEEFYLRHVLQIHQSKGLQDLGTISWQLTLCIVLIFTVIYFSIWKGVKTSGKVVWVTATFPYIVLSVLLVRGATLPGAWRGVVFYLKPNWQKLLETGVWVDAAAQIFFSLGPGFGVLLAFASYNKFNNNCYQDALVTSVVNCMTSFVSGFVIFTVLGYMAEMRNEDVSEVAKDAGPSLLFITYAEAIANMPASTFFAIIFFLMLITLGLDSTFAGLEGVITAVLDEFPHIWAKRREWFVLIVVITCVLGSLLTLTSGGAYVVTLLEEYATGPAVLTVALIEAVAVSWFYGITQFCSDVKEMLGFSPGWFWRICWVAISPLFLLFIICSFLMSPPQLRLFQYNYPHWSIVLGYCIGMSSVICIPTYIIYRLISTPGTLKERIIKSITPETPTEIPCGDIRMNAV

For the assay, the target named is rat SERT (rSERT) (Rattus norvegicus, UniProt P31652).

What is called Ki is the equilibrium dissociation constant of an inhibitor or competing ligand from its target. For `Fc1ccc([C@@H]2CCNC[C@H]2COc2ccc3c(c2)OCO3)cc1` [paroxetine, (-)-trans-paroxetine, reference compound], the inhibition constant Ki amounted to 311 pM.
